Results taken from patent US7879913B2 (Catholic Healthcare West, priority 2005, dated 2011).

Chains of the proteins cited; added tags and fusions are not shown. Residues count along the entry.
UniProt P17787, 26-502: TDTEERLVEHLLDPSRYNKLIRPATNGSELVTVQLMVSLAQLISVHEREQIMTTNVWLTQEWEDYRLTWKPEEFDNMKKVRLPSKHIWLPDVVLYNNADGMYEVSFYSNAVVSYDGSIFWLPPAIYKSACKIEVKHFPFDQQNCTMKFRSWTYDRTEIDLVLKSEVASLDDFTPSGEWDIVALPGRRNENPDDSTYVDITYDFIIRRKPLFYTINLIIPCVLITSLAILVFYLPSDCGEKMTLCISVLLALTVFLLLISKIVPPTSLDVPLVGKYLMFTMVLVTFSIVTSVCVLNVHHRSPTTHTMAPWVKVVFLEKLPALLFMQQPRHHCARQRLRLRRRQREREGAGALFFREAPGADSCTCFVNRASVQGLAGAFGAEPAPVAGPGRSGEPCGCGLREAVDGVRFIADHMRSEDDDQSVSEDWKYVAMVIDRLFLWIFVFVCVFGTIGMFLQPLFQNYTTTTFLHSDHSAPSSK
UniProt P43681, 29-627 limits assumed: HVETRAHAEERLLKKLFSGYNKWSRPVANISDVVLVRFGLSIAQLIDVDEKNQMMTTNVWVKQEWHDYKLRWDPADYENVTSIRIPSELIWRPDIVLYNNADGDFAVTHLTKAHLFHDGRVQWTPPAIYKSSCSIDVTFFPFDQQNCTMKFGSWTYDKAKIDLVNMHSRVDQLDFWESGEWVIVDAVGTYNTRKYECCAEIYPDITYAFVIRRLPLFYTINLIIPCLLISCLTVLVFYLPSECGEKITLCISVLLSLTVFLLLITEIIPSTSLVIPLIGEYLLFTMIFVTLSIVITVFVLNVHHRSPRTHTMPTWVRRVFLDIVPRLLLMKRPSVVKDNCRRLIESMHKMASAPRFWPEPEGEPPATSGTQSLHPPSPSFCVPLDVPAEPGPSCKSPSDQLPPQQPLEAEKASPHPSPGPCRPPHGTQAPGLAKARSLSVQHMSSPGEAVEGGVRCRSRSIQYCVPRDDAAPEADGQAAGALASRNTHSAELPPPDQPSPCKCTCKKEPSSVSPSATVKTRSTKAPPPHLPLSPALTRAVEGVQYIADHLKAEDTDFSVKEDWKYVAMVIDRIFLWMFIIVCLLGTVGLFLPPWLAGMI

Target: α4β2-nAChR agonist binding sites (Homo sapiens, UniProt P17787+P43681)
Assay: 3H-epibatidine radioligand binding assay
Conditions: with previously reported IC50 values

Structure (SMILES): CO[C@H]1CC=C2CCN3CCC4=C(CC(=O)OC4)[C@]23C1 [dihydro-β-erythroidine]
- block of 3H-epibatidine binding: blocked
